The text below walks through data of patent US7192768B2, “Synchronization of the cytoplasmatic and the nuclear maturation of oocytes in vitro” (Novo Nordisk A/S, priority 2001, dated 2007).

Common to all, as to format: cell-based
The test system of assay [1] is cumulus enclosed mouse oocytes. The experiment in a line: FSH induced resumption of meiosis of mouse oocytes cultured in vitro (dbc-AMP control medium). Particulars: FSH 75 IU/L alone in control medium (200 μM dbc-AMP), 22-24 h culture. As for the experimental part: Immature female mice (B6D2-F1 strain C57B1/2J) were kept under controlled light and temperature conditions with free access to food and water. Ovarian stimulation was performed when the mice weighed 10–16 grams and consisted of an intra-peritoneal injection of Gonadoplex (Leo, Copenhagen, Denmark) containing 7.5 U/mouse. The animals were killed by cervical dislocation 44–48 h later. The media used for the culture of oocytes consisted of α-Minimum Essential Medium (α-MEM), with Earles Balanced Salt Solution (EBSS), 200 μM dibuturyl-cyclic-adenosine-mono-phosphate (dbc-AMP), 3 mg/ml Bovine Serum Albumin, 0,23 mM pyruvate, 2 mM glutamine, 100 IU/ml penicillin and 100 mg/ml streptomycin (i.e. control medium). The ovaries were recovered and oocytes isolated from the ovaries by puncturing individual follicles using a 25 gauge needle. The oocytes were washed 3 times in control medium before the start of each experiment. Cumulus enclosed oocytes were cultured separately in 4-well dishes (Nuncleon, Roskilde, Denmark), 0.4 ml medium in each well containing control medium or medium supplemented with ketoconazole in a 100% humidified atmosphere of 5% CO2 with 95% air at 37° C. […] By the end of the culture period, germinal vesicle breakdown (GVBD) was scored by examining the oocyte in an inverted microscope. The percentage of oocytes with GVBD per total number of oocytes (% GVBD) was calculated. […]

In assay [2] the test system is cumulus-enclosed oocytes (CEO). Briefly: FSH induced resumption of meiosis of hypoxanthine arrested mouse oocytes cultured in vitro (ketoconazole). Particulars: FSH 50 IU/L alone in HX-medium (4 mM hypoxanthine), 24 h. On the procedure:
Oocytes were obtained from immature mice (Kunming white mouse) weighing 14–16 g that were kept under controlled light and temperature conditions with free access to water. The mice received an intra peritoneal injection of 0.1 ml pregnant mare's serum gonadotrophin (PMSG, Sigma, New York, U.S.A) containing 10 IU PMSG. Forty-six hours later, the animals were killed by cervical dislocation. The ovaries were dissected out and placed in M199 culture medium (GIBCO, U.S.A) containing 4 mM hypoxanthine, 3 mg/ml bovine serum albumin, 0.23 mM pyruvate, 2 mM glutamine (all Sigma, U.S.A) and 100 IU/ml penicillin, 100 ug/ml Streptomycin. This medium was termed “HX-medium”. A media similar to the above but without HX are termed “maturation-medium”. Oocytes were isolated in HX-medium under a stereo microscope by manual rupture of follicles using a pair of 5.5-gauge needles. Spherical oocytes with intact cumulus cells connection and displaying germinal vesicle were categorized as cumulus-enclosed oocytes (CEO). […] At the end of the culture period (i.e 24 h), oocytes with GV or GVBD, or polar body (PB) were counted using an inverted microscope with differential interference contrast equipment (Leica, German). The percentage of oocytes with GVBD per total number of oocytes (% GVBD) and the percentage of oocytes with PB formation per total number of oocytes (% PB) were calculated. […]

The subject of assay [3] is cumulus-enclosed oocytes (CEO). The experiment in a line: FSH induced resumption of meiosis and cumulus expansion of hypoxanthine arrested mouse oocytes cultured in vitro (22-hydroxycholesterol). Particulars: FSH 75 IU/L alone. On the set-up: key to Cumulus expansion: 0: No expansion, compact cumulus layer surrounding the oocyte; +: A slight cumulus expansion, the most peripheral cumulus cell looks a little fluffy; ++: good expansion of cumulus cell without a spherical cloud like expansion; +++: full cumulus expansion with a fluffy cloud like expansion with extended distance between the somatic cells. On the procedure:
Immature female mice (B6D2-F1 strain C57B1/2J) were kept under controlled light and temperature conditions with free access to food and water. Ovarian stimulation was performed when the mice weighed 10–16 grams and consisted of an intra-peritoneal injection of Gonadoplex (Leo, Copenhagen, Denmark) containing 7.5 U/mouse. The animals were killed by cervical dislocation 44–48 h later. The media used for the culture of oocytes consisted of α-Minimum Essential Medium (α-MEM), with Earles Balanced Salt Solution (EBSS), containing 4 mM hypoxanthine, 3 mg/ml bovine serum albumin, 0.23 mM pyruvate, 2 mM glutamine (all Sigma, U.S.A) and 100 IU/ml penicillin, 100 ug/ml Streptomycin. This medium was termed “HX-medium”. A media similar to the above but without HX are termed “maturation-medium”. Oocytes were isolated in HX-medium under a stereo microscope by manual rupture of follicles using a pair of 5.5-gauge needles. Spherical oocytes with intact cumulus cells connection and displaying germinal vesicle were categorized as cumulus-enclosed oocytes (CEO). Oocytes were rinsed 3 times in fresh HX-medium. Prior to each experimental set-up, all oocytes from 10–15 mice were pooled. Only oocytes with a germinal vesicle present were used and distributed in separate wells of a 4-well dish (Nuncoln, Denmark) containing 1 ml of HX-medium. Each well contained 20–30 oocytes and was cultured at 37° C. in 100% humidity in air with 5% CO2. Each experiment was repeated at least 4 times. At the end of the culture period (i.e 24 h), oocytes with GV or GVBD, or polar body (PB) were counted using an inverted microscope with differential interference contrast equipment (Leica, German). […]
To the control medium FSH (Puregon, Organon, Oss, The Netherlands) 75 IU/L was added. To the medium containing FSH 75 IU/L, 22-hydroxycholesterol in the designated concentrations was added and all media were subjected to culture together with mouse oocytes.
Graduation of cumulus expansion: 0: No expansion, compact cumulus layer surrounding the oocyte; +: A slight cumulus expansion, the most peripheral cumulus cell looks a little fluffy; ++: good expansion of cumulus cell without a spherical cloud like expansion; +++: full cumulus expansion with a fluffy cloud like expansion with extended distance between the somatic cells.

The mark [4] stands for this setting: with fetal calf serum in the medium.
[5] abbreviates: without fetal calf serum, HX-medium, 24 h.

For “FSH: follicle stimulating hormone: Metrodin HP, Serono (Ex. 1); Sigma (Ex. 2); Puregon, Organon (Ex. 3)”, the “% GVBD” value in assay [1] is on record as 31%; in assay [2], 59%; in assay [3] (setting [4]) it was 54%; in assay [3] (setting [5]) it was 55%. The “% PB (PB/GVBD)” value in assay [1] is recorded as 66%; in assay [2], 35%; in assay [3] (setting [4]), 56%; in assay [3] (setting [5]), 76%. In assay [3] (setting [4]), the Cumulus expansion result is given as “+++”.
